Common to all, as to assay type: cell-based
What all share (conditions): filed as positive allosteric modulator

By UniProt entry, the sequences of proteins in these tests, tags left out. Where a name states a change or a piece, a line headed by the entry shows the natural chain unless it says otherwise.
UniProt Q14957: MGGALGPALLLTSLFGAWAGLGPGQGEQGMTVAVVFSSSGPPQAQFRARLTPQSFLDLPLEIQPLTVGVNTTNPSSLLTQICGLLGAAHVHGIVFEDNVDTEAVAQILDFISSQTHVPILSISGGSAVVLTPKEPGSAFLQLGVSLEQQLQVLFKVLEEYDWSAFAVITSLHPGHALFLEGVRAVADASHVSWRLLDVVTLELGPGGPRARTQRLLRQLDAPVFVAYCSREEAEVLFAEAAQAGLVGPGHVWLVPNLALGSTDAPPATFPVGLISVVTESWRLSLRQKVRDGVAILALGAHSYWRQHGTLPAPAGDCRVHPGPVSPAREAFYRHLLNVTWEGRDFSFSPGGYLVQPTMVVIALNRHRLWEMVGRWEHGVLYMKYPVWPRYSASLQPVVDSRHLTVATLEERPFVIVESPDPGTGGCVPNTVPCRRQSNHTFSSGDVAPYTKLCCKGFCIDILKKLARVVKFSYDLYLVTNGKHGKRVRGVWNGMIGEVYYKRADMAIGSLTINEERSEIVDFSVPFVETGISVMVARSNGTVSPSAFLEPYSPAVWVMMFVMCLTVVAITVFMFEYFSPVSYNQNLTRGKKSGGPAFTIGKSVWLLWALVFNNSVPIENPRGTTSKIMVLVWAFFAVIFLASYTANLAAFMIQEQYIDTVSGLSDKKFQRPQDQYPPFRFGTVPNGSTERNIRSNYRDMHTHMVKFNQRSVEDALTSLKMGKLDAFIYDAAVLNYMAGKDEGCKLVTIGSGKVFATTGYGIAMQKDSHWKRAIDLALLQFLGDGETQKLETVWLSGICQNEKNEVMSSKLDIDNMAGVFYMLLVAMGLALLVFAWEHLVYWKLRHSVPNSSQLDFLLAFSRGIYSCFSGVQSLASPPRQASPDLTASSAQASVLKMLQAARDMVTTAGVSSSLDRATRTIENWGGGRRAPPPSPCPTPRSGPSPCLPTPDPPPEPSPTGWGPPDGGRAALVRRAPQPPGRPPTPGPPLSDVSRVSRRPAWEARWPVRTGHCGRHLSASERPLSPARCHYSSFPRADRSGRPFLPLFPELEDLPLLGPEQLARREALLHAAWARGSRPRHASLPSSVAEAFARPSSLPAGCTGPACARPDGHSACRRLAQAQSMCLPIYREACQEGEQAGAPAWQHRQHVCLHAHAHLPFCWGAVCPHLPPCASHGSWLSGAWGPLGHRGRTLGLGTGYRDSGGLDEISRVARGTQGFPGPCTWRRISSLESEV
UniProt Q13224, whole entry, looked up: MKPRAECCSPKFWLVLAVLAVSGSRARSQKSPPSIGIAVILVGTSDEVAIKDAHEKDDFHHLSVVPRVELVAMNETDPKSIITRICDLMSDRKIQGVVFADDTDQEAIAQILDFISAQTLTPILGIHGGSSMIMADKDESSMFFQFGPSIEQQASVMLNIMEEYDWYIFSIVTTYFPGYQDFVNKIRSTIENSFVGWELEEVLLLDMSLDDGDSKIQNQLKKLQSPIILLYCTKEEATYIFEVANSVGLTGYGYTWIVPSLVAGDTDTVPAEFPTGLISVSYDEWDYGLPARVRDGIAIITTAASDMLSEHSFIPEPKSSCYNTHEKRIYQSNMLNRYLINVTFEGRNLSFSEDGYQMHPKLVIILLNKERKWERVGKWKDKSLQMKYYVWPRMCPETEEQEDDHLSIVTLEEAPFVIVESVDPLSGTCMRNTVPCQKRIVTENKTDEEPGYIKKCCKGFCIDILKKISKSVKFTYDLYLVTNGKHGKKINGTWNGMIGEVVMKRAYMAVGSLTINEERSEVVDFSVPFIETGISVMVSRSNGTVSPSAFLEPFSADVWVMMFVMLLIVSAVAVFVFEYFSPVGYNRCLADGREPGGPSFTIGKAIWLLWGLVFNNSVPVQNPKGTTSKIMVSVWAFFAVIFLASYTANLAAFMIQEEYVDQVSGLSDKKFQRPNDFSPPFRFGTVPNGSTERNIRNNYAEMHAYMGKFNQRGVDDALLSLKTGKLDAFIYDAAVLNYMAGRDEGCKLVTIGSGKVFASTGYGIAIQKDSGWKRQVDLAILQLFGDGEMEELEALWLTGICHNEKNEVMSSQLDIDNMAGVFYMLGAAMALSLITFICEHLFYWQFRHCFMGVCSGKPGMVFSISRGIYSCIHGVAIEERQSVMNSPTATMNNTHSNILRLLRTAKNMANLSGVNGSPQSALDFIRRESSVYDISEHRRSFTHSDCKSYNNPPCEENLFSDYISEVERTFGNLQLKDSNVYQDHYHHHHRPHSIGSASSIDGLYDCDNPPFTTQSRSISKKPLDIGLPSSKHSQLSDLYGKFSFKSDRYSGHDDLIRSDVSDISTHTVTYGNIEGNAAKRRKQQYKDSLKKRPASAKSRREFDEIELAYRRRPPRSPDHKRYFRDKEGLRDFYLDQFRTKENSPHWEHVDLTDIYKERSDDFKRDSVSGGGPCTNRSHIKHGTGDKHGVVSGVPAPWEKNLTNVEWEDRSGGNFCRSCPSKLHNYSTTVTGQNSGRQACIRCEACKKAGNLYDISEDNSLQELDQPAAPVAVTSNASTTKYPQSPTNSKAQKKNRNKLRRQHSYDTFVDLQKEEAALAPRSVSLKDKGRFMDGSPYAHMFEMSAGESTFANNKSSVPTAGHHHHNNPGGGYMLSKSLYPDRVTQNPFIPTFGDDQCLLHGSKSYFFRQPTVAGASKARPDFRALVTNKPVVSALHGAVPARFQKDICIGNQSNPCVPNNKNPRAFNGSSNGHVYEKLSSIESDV
UniProt O15399, whole entry: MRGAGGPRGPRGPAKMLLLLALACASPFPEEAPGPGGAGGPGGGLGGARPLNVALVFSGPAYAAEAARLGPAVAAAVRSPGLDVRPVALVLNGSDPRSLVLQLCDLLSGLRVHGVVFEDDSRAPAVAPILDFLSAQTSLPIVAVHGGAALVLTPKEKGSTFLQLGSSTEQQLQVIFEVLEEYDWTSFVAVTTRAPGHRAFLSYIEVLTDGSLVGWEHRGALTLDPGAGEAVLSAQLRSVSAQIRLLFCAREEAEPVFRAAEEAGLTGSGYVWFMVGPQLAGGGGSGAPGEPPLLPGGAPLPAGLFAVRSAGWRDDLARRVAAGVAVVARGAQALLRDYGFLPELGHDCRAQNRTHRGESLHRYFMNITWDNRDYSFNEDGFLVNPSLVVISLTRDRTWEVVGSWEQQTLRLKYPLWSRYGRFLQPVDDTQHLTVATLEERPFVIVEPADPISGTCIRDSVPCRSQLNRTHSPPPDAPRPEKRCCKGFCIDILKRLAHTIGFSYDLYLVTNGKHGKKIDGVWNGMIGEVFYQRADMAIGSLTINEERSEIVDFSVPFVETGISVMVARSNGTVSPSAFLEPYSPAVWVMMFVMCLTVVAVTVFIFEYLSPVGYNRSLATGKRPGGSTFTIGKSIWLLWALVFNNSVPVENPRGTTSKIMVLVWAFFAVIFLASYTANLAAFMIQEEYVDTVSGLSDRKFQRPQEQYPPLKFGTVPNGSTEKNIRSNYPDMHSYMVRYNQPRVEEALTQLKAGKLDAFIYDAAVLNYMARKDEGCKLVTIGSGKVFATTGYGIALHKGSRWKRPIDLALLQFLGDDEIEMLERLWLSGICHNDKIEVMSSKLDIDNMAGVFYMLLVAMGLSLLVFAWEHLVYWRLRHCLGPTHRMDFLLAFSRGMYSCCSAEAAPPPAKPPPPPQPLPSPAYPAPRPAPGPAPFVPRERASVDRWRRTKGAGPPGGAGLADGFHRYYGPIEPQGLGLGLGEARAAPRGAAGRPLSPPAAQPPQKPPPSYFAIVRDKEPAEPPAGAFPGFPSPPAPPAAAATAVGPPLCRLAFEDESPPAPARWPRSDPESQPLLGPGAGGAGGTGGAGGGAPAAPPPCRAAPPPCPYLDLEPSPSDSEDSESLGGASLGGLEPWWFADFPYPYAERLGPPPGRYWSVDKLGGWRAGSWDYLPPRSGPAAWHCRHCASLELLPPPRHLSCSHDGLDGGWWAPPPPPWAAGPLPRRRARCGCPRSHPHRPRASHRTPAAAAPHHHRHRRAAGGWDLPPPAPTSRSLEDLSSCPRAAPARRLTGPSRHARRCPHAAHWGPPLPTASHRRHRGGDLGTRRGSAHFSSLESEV

In assay [1] the target is Glutamate receptor ionotropic, NMDA 2C (Homo sapiens) (UniProt Q14957). Put plainly: Positive allosteric modulator activity at GluN2C NMDA receptor (unknown origin) expressed in CHO cells co-expressing GluN1a assessed as maximum potentiation at 30 uM in the presence of L-glutamate and glycine by Ca2+ influx assay.
Assay [2] concerns the target Glutamate receptor ionotropic, NMDA 2B (Homo sapiens) (UniProt Q13224). The assay can be described thus: Positive allosteric modulator activity at GluN2B NMDA receptor (unknown origin) expressed in CHO cells co-expressing GluN1a assessed as maximum potentiation at 30 uM in the presence of L-glutamate and glycine by Ca2+ influx assay.
Assay [3] has as its target Glutamate receptor ionotropic, NMDA 2D (Homo sapiens) (UniProt O15399). The assay can be described thus: Positive allosteric modulator activity at GluN2D NMDA receptor (unknown origin) expressed in CHO cells co-expressing GluN1a assessed as maximum potentiation at 30 uM in the presence of L-glutamate and glycine by Ca2+ influx assay.

For 1 compound, Activity results are on record in ChEMBL document CHEMBL5241126, “Design and synthesis of 6-methylpyridin-2-one derivatives as novel and potent GluN2A positive allosteric modulators for the treatment of cognitive impairment” (Bioorg Med Chem, 2023).

SMILES strings stand for the structures.

On to `Cc1cc(Cn2nc(Br)cc2Cl)cc(=O)n1C[C@H]1C[C@@H]1C#N`, for which the Activity is 430% in assay [1], less than 150% in assay [2] and 310% in assay [3].
